Results reported in patent publication US11732143B2, “Identification and characterization of novel corrosion inhibitor molecules” (ECOLAB USA INC., priority 2015, dated 2023).

System: live bacteria
Test: Biocide efficiency, fluorescence detection of ATP, percentage kill / viable bacteria
Format: cell-based
Experimental: Biocidal efficiency of the biocide and biocide in conjunction with corrosion inhibitors were analyzed using fluorescence to indirectly detect the amount of ATP in a given sample. ATP provides a direct correlation to live bacteria (1fg of ATP=1 cell). Through a standard curve, it is the possible to translate the amount of ATP in a given sample to the number of cells/mL in a given sample. Percentage kill was calculated by normalizing the detected bacterial numbers in a biocide or a biocide and corrosion inhibitor treated sample to untreated sample.

Dodecenyl succinic anhydride
biocidal efficiency in conjunction with biocide 4 (120 ppm corrosion inhibitor + 100 ppm biocide 4 (glutaraldehyde)): modest increase in the biocidal properties of glutaraldehyde
biocidal efficiency of the corrosion inhibitor by itself (viable microorganisms) (120 ppm corrosion inhibitor alone): not efficient in reducing the number of viable microorganisms by itself
